Antibody variant affinities, Ab-14 heavy chain, assay B

Target peptide (SARS-CoV-2 spike, HR2 region): PDVDLGDISGINAS

Ab-14 is the parent antibody, in scFv form: VH, then three GGGGS repeats, then VL. The light chain is unchanged in all variants.
VH: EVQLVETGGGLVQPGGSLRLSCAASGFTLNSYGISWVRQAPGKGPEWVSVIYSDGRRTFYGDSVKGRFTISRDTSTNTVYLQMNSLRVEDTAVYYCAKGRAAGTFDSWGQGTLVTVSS
VL: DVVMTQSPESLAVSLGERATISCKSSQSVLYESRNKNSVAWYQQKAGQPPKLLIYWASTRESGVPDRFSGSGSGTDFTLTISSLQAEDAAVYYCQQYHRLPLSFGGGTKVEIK

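This is the validation round: designs drawn from the data on random variants, tested in the same kind of assay. Group labels follow the data file (Ctrl: baseline library sampled from a position-specific scoring matrix, with some repeated check sequences; Rand: our label for a block that the file lists under HC and that is probably the random mutants of the ten best first-round binders; GP: Gaussian process model; GPLM: also part of the Gaussian process libraries; HC: hill climbing; Gen: genetic algorithm; Gibbs: Gibbs sampling; a sequence that several methods proposed may carry one label only). Affinity was read by AlphaSeq, a pooled yeast mating assay with surface-displayed partners. After mating in shaken culture at 30 °C for 16 h, diploids were selected and their barcode pairs sequenced. Read counts were normalised to the haploid input and turned into Kd by a linear fit to BCL2-family pairs of known affinity, for each replicate. Each pool was mated in six replicate cultures.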

Positions count from residue 1 of the parent VH; T28D puts D in place of T.
Variants here have at most six changes.
The Kd shown is the geometric mean over detected replicates; a lower Kd is a better binder.
Where no diploid with the target was found in any replicate, the entry reads "nd": below detection, most likely a poor binder, though not proof of it.
Of ten entries with the parent sequence, four were seen in most replicates (averages 2.2 nM to 240 nM), three in one and three in none, so single entries are noisy.
A sequence that the file lists under several names has all its replicates pooled.
The authors averaged sequences with at least three values out of six and counted those with two or fewer as poor binders.
As a blank, each scFv also met three strains without target: over all heavy chain designs, 1% of these pairings were detected, typically at 120 nM and seldom below 7.0 nM. Also given: how often the same scFv was detected with the empty control strains.
Values of this round are not directly comparable with the first-round values of the same sequences.

With T28D+R100N+S107K [GP_Gen] the result was 1.6 nM (6 of 6 replicates; controls 0 of 18). Variant T28S+S31M+S63Q+A101T [GPLM_Gibbs] gave 20 nM (3 of 6 replicates; controls 0 of 18). With T28S+S31W+F59A+G61I [GP_HC] the result was 44 nM (5 of 6 replicates; controls 0 of 18). For T28D+F59A+D106V [GPLM_HC], the assay gave 27 nM (1 of 6 replicates; controls 0 of 18). For G26M+R100H+A101E+S107T [GP_Gibbs], the assay gave 23 nM (6 of 6 replicates; controls 0 of 18).

For T28S+F59A+A101S [GP_Gen], the assay gave 15 nM (3 of 6 replicates; controls 0 of 18). With T28D+R56K+R100N [GP_Gen] the result was 13 nM (6 of 6 replicates; controls 1 of 18). With S31M+R56T+G61S [GP_HC] the result was 5.5 nM (6 of 6 replicates; controls 0 of 18). Variant T28S+S31E+G61Q+A101Q [GP_Gen] gave 650 pM (6 of 6 replicates; controls 0 of 18). Variant S31E+A101N+S107G [GP_HC] gave 18 nM (6 of 6 replicates; controls 1 of 18).

With T28E+G61A+A101W [GPLM_Gen] the result was 5.7 nM (5 of 6 replicates; controls 0 of 18). For F59A+A101E [Ctrl], the assay gave 920 pM (6 of 6 replicates; controls 1 of 18). For F59Y+T104H [Ctrl], the assay gave nd (0 of 6 replicates; controls 0 of 18). For T28H+S31D+G61I+A101S [GP_HC], the assay gave 18 nM (6 of 6 replicates; controls 0 of 18). Variant S31D+F59M+A101T [GPLM_Gen] showed 1.3 nM (6 of 6 replicates; controls 0 of 18).

Variant N30D+S35C+I51W+F105A+D106L [Rand] gave nd (0 of 6 replicates; controls 0 of 18). With S31E+G61T+D106T+S107L [GP_HC] the result was 690 pM (6 of 6 replicates; controls 0 of 18). Variant G26M+T28D+R100K+A101Q [GP_Gen] showed 14 nM (1 of 6 replicates; controls 0 of 18). Variant G26D+Y52M+G61S+G99I+A102G [Rand] gave nd (0 of 6 replicates; controls 0 of 18). Variant S53A+F105N+S107L [GPLM_HC] showed 20 nM (1 of 6 replicates; controls 0 of 18).

With F27R+G61D+R100Q+A101L+S107Q [Rand] the result was 6.9 nM (6 of 6 replicates; controls 0 of 18). Variant F27E+S31M+R100T [Ctrl] gave 390 nM (6 of 6 replicates; controls 1 of 18). Variant T28H+R100Q [Ctrl+GPLM_Gen] showed 20 nM (10 of 12 replicates; controls 2 of 36). Variant G26M+T28D+F59A+A101T [GP_Gen] showed 750 pM (6 of 6 replicates; controls 0 of 18). With G26M+T28D+A101E+S107T [GP_Gen] the result was 1.4 nM (4 of 6 replicates; controls 0 of 18).

Variant G26L+G55P+G103I [Ctrl] gave nd (0 of 6 replicates; controls 0 of 18). Variant S31D+G61I+A101Y [GPLM_HC] showed 2.3 nM (1 of 6 replicates; controls 0 of 18). Variant F27D+T28G+R56E+R100S [Ctrl] showed 41 nM (1 of 6 replicates; controls 0 of 18). For F105W+S107E [Ctrl], the assay gave 460 nM (1 of 6 replicates; controls 0 of 18). For T28Q+S31E+A101T+D106I [GP_Gen], the assay gave 19 nM (1 of 6 replicates; controls 0 of 18).

For T28W+S31E+G61A+R100K [GPLM_Gen], the assay gave 8.1 nM (6 of 6 replicates; controls 1 of 18). Variant R100V+A102I [Ctrl] showed nd (0 of 6 replicates; controls 0 of 18). Variant S31E+S53A+T58V+S107T [Ctrl] gave 4.1 nM (6 of 6 replicates; controls 1 of 18). With S31M+G99T [Ctrl] the result was nd (0 of 6 replicates; controls 0 of 18). Variant T28E+L29P+A101E+F105S+D106H [Ctrl] gave nd (0 of 6 replicates; controls 0 of 18).

With T28G+G61S+R100K [GPLM_Gibbs] the result was 2.3 nM (6 of 6 replicates; controls 0 of 18). For S31E+G61K+A101E+S107V [GP_HC], the assay gave 21 nM (5 of 6 replicates; controls 0 of 18). With G61A+G99N [Ctrl] the result was 140 nM (1 of 6 replicates; controls 1 of 18). For G26K+T28N+R100Q+A101T [GP_Gen], the assay gave 4.8 nM (6 of 6 replicates; controls 0 of 18). For T28D+G61D+R100Q+A101E [GP_Gibbs], the assay gave nd (0 of 6 replicates; controls 0 of 18).

With G61N+A102P [Ctrl] the result was nd (0 of 6 replicates; controls 0 of 18). For G26K+G61L+R100S [Ctrl], the assay gave nd (0 of 6 replicates; controls 0 of 18). Variant S31Q+G55K+G61S+T104F [Rand] showed nd (0 of 6 replicates; controls 1 of 18). Variant R100K+A101T+S107V [GPLM_Gibbs] showed 11 nM (6 of 6 replicates; controls 0 of 18). Variant S31E+A101F+S107A [GP_HC] showed 2.5 nM (6 of 6 replicates; controls 0 of 18).

With G61T+R100V+A101E [GPLM_HC] the result was 3.0 nM (6 of 6 replicates; controls 1 of 18). Variant T28S+S31E+F105L [GPLM_Gen] gave 8.2 nM (6 of 6 replicates; controls 0 of 18). With S31M+A101F [Ctrl] the result was 19 nM (4 of 6 replicates; controls 0 of 18). For G61S+S107L [Ctrl+GPLM_HC], the assay gave 9.0 nM (9 of 12 replicates; controls 0 of 36). Variant T28E+D106R [Ctrl] gave nd (0 of 6 replicates; controls 0 of 18).

Repeated from above, the 7 best binders with a signal in all replicates:

| changes | group | apparent Kd | detected | control signals |
|---|---|---|---|---|
| T28S+S31E+G61Q+A101Q | GP_Gen | 650 pM | 6/6 | 0/18 |
| S31E+G61T+D106T+S107L | GP_HC | 690 pM | 6/6 | 0/18 |
| G26M+T28D+F59A+A101T | GP_Gen | 750 pM | 6/6 | 0/18 |
| F59A+A101E | Ctrl | 920 pM | 6/6 | 1/18 |
| S31D+F59M+A101T | GPLM_Gen | 1.3 nM | 6/6 | 0/18 |
| T28D+R100N+S107K | GP_Gen | 1.6 nM | 6/6 | 0/18 |
| T28G+G61S+R100K | GPLM_Gibbs | 2.3 nM | 6/6 | 0/18 |

From the AlphaSeq antibody data of Li et al. 2023 (doi:10.1038/s41467-023-39022-2), copy in the FLAb collection.